Publication PMC6814707
Positions count from the first letter of the chain named. Numbers in names are those of the source.

Chains of the proteins cited; added tags and fusions are not shown. A line that says so, or that is headed by a name, gives the form on record, which may keep a tag or linker.
MW11-h317 (humanized anti-PD-1 monoclonal antibody), one chain, as listed by the source, chain 2 of 2: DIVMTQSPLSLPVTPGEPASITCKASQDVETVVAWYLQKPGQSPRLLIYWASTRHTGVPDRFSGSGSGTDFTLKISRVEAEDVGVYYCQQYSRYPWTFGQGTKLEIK
MW11-h317 (humanized anti-PD-1 monoclonal antibody), one chain, as listed by the source, chain 1 of 2: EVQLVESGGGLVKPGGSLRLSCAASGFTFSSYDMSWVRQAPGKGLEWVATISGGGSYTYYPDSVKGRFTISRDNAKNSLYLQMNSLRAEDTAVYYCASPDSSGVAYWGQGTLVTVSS

B1: WT PD-1 (lacking the intracellular region) fused with EGFP, on HEK 293 cells N58A (protein)
chain: LDSPDRPWNPPTFSPALLVVTEGDNATFTCSFSATSESFVLNWYRMSPSNQTDKLAAFPEDRSQPGQDCRFRVTQLPNGRDFHMSVVRARRNDSGTYLCGAISLAPKAQIKESLRAELRVTERRAEVPTAHPSPSPRPAGQFQTLVVGVVGGLLGSLVLLVWVLAVI
B2: WT PD-1 (lacking the intracellular region) fused with EGFP, on HEK 293 cells N74A (protein)
chain: B1 chain with A34N, N50A
B3: WT PD-1 (lacking the intracellular region) fused with EGFP, on HEK 293 cells N49A (protein)
chain: B1 chain with N25A, A34N
B4: WT PD-1 (lacking the intracellular region) fused with EGFP, on HEK 293 cells N116A (protein)
chain: B1 chain with A34N, N92A

target: MW11-h317 (humanized anti-PD-1 monoclonal antibody); test: flow cytometry on cells; conditions: chain shown with the change; HEK 293 cells transfected with PD-1 (WT or mutant) fused with EGFP; MW11-h317 detected in the APC channel

other: percent of cells in Q1-UR quadrant (PD-1-GFP positive, MW11-h317-APC positive) [%] | Binder
1.67 | B1
25.8 | B2
31.1 | B3
25.2 | B4
